Laboratory results published in PubChem BioAssay (Tox21).
The list shows a part of the results, in another mix than the full data. The source made the active and inactive calls. Calls follow the shape of the dose curve; as a rule, active = well fitted activation curve with a large enough effect in the repeat runs; inconclusive = weak or mixed curves; inactive = flat fitted curve, though single readings scatter. Entries that show only a call come without a potency.

Chains of the proteins cited; added tags and fusions are not shown.
UniProt Q969F8, whole entry, looked up: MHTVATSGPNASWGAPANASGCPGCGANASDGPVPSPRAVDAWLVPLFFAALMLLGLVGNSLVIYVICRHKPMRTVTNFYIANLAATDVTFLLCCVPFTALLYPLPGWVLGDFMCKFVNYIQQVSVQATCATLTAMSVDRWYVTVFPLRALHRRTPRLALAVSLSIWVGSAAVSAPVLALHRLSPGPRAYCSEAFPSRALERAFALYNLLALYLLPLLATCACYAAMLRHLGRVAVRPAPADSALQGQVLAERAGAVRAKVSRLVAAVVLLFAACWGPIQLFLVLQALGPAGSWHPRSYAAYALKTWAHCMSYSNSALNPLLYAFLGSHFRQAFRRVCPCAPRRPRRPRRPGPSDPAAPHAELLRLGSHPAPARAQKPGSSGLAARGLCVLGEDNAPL

Target: KiSS-1 receptor (Homo sapiens) (UniProt Q969F8)
Assay: Human kisspeptin (KISS1R) small molecule agonists, calcium flux assay in KISS1R-HEK293 cells (AID 1920064)
Conditions: KISS1R-HEK293, calcium flux fluorescence, agonist; series mostly up to 76.8 µM
From the text: National Center for Advancing Translational Sciences [NCATS]
Division of Preclinical Innovation [DPI]
U.S. Environmental Protection Agency [EPA]
National Institutes of Environmental Health Sciences [NIEHS]
National Toxicology Program [NTP]
U.S. Food and Drug Administration [FDA]
Kisspeptin and its receptor KISS1R play key roles in mammalian reproduction due to their involvement in the onset of puberty and control of the hypothalamic-pituitary-gonadal axis such as regulates GnRH release from the hypothalamus. The kisspeptin/KISS1R system also plays a direct role in peripheral organs (including the ovary, testis, uterus, and placenta) and is implicated in reproductive diseases such as miscarriage and polycystic ovary syndrome (PCOS). Abnormal KISS1R activity is associated with abnormal puberty, infertility, endometriosis, and hormone-dependent tumors. The KISS1 receptor (KISS1R, also called GPR54), a G-protein-coupled receptor (GPCR), acts (through phospholipase C) to increase intracellular inositol trisphosphate and then release intracellular calcium stores. Cell-based KISS1R-HEK293 assay is using HEK293 cells that have been genetically engineered to express the human KISS1R, which activity can be measured by calcium signaling. A compound/drug can activate (agonist) KISS1R that can be monitored by levels of intracellular calcium.
KISS1R-HEK293 cells developed by Codex Corp contain human KISS1R gene, which was stably integrated into HEK 293 cells. The compound activation can be detected by fluorescence intensity via calcium flux assay. This cell line has been used to screen the Tox21 10K compound library to identify agonists of KISS1R.
KISS1R-Hek293 cells were dispensed at 1500 cells/4uL/well in 1536-well black wall/clear bottom plates using a multidrop dispenser. After the assay plates were incubated at a 37 C/5% CO2 incubator for 18 hours, 4 microL of Calcium Dye Solution was added to each well. The plates were incubated at 37 C for 1 hour. And then 23 nL of compounds dissolved in DMSO, positive controls, or DMSO only was transferred to the assay plate by a pin tool station. The fluorescence intensity in the plates was measured using FDSS 7000EX kinetic plate reader with a filter set of Ex/Em=480/540 for 3 min at 1 sec intervals. Each test compound was measured at 15 concentrations and in triplicates.

SMILES | Potency | activation
O=[N+]([O-])c1ccc(S(=O)(=O)O)c([N+](=O)[O-])c1 | inactive | 
O=P(Cl)(Oc1ccccc1)Oc1ccccc1 | inactive | 
CCCCOP(OCCCC)OCCCC | inactive | 
CCOP(=S)(CC)Sc1ccccc1 (centres undefined) | inactive | 
Cc1cc([N+](=O)[O-])c(O)c([N+](=O)[O-])c1 | inactive | 
O=[P+](Oc1ccccc1)Oc1ccccc1 | inactive | 
CCCCC(CC)CO[P+](=O)OCC(CC)CCCC (centres undefined) | inactive | 
CCOC(=O)Cl | inactive | 
CCCCO[P+](=O)OCCCC | inactive | 
CCC(C)(OOC(C)(C)C)OOC(C)(C)C |  | inactive: 1.48% [at 15.8 µM]
CN(N=O)C(=N)N[N+](=O)[O-] | inactive | 
O=C(Cl)Oc1ccccc1 | inactive | 
N#CSc1ccc([N+](=O)[O-])cc1[N+](=O)[O-] | inactive | 
NC(=O)Nc1ccc([As](=O)(O)O)cc1 | inactive | 
CC(C)CCCCCCCOP(OCCCCCCCC(C)C)Oc1ccccc1 | inactive | 
CC(C)OP(=S)(OC(C)C)SCCNS(=O)(=O)c1ccccc1 | inactive | 
Cc1cc([N+](=O)[O-])cc([N+](=O)[O-])c1O | inactive | 
O=[p+]1oc2ccccc2c2ccccc21 (centres undefined) | inactive | 
CCCCCCCCCCCCCC[P+](CCCCCC)(CCCCCC)CCCCCC | inactive | 
O=C(Cl)OCCOC(=O)Cl | inactive | 
CN(C(=O)Cc1cccc2occc12)[C@H]1CC[C@@]2(CCCO2)C[C@@H]1N1CCCC1 | inactive | 
COC(=O)Cl | inactive | 
O=P(Cl)(Cl)c1ccccc1 | inactive | 
ClP(Cl)c1ccccc1 | inactive | 
CN(C(=O)Cc1ccccc1)[C@H]1CC[C@@]2(CCCO2)C[C@@H]1N1CCCC1 | inactive | 
CCNC(C)Cc1ccc2c(c1)OCO2 (centres undefined) | inactive | 
CN(C(=O)Cc1ccc(Cl)c(Cl)c1)[C@H]1CC[C@@]2(CCCO2)C[C@@H]1N1CCCC1 | inactive | 
COP(=S)(Cl)OC | inactive | 
O=[N+]([O-])c1ccc([N+](=O)[O-])cc1 | inactive | 
